Laboratory results: US6602888B2, “Use of α1C specific compounds to treat benign prostatic hyperplasia” (Synaptic Pharmaceutical Corporation, priority 1992, dated 2003)

Protein sequences, listed by entry. Tags and fused reporters are not part of them.
UniProt P14416, whole entry: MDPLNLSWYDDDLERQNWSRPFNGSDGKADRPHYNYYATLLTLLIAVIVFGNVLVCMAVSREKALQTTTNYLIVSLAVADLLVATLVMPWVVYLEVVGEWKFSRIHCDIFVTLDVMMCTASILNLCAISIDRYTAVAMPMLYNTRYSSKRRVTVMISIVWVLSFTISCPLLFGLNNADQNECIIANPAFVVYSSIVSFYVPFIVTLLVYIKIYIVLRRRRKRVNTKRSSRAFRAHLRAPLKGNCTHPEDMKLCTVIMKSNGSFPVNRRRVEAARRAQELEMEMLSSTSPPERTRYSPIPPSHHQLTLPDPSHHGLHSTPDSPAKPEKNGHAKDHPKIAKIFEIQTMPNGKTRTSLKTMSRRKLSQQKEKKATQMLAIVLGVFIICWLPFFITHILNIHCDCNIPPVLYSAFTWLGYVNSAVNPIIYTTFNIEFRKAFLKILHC
UniProt P28223, whole entry: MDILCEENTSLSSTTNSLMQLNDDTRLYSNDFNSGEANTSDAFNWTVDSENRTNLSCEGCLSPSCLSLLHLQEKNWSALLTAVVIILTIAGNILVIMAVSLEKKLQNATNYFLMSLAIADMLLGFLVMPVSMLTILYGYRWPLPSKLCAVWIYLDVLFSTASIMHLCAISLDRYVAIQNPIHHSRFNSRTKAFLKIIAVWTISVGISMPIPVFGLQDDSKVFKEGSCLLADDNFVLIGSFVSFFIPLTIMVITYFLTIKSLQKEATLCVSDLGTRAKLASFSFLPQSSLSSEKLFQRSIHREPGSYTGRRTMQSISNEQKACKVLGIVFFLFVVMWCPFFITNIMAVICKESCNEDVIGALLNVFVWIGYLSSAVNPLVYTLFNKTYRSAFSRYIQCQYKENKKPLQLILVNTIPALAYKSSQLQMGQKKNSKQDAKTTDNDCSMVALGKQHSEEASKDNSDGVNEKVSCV
UniProt P22002, whole entry: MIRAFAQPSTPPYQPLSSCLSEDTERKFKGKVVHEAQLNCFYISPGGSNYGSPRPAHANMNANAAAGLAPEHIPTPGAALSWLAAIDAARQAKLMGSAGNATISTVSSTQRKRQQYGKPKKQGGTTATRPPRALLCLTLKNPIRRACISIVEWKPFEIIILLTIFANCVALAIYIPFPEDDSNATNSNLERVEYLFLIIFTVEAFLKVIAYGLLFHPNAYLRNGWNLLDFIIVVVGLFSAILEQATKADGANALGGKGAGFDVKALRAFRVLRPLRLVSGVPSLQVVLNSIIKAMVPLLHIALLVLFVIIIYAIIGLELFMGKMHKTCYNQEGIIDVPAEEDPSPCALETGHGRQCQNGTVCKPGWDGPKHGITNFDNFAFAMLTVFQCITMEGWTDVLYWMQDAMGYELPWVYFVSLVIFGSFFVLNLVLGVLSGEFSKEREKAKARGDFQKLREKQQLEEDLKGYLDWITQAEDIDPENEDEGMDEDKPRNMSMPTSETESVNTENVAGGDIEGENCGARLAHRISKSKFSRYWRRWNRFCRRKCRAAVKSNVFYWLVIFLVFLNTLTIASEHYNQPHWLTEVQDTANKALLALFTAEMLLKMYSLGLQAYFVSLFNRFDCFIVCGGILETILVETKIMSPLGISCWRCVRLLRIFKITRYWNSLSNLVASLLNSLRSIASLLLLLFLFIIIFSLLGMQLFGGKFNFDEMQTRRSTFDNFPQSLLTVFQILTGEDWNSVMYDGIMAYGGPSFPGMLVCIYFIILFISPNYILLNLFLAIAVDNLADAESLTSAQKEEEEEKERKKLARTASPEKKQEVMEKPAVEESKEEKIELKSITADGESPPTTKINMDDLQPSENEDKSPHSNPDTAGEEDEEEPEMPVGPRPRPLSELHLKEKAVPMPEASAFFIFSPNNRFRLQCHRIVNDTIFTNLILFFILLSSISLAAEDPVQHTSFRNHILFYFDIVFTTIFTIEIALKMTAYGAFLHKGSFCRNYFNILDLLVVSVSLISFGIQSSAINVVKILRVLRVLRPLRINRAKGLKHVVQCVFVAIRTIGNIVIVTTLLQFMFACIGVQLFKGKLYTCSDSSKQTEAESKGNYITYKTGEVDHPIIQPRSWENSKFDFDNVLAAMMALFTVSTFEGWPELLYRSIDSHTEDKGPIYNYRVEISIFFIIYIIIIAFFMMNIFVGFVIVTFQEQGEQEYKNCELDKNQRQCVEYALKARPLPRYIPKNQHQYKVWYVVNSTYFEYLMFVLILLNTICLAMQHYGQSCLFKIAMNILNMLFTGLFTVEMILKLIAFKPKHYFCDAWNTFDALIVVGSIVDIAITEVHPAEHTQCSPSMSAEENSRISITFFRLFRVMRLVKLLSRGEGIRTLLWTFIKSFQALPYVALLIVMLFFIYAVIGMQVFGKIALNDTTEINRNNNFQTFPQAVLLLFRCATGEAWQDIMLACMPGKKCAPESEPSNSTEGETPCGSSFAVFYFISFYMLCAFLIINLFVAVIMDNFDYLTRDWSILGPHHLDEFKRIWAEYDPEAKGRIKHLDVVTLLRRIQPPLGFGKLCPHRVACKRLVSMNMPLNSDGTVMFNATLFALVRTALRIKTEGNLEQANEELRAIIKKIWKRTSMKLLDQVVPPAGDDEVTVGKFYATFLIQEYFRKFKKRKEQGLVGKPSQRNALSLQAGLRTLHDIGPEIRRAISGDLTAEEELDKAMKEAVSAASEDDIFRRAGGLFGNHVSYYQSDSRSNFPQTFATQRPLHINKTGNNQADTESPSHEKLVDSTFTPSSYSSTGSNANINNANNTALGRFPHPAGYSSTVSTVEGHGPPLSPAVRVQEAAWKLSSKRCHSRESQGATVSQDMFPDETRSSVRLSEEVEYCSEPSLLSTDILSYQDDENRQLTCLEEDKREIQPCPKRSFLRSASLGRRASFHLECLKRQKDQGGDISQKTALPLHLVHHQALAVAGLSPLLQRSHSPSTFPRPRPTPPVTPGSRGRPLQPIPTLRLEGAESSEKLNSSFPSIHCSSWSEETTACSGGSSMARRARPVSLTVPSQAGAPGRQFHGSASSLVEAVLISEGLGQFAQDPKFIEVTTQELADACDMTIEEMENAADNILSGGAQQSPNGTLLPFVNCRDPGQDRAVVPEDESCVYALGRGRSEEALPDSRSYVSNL
UniProt P35367, whole entry: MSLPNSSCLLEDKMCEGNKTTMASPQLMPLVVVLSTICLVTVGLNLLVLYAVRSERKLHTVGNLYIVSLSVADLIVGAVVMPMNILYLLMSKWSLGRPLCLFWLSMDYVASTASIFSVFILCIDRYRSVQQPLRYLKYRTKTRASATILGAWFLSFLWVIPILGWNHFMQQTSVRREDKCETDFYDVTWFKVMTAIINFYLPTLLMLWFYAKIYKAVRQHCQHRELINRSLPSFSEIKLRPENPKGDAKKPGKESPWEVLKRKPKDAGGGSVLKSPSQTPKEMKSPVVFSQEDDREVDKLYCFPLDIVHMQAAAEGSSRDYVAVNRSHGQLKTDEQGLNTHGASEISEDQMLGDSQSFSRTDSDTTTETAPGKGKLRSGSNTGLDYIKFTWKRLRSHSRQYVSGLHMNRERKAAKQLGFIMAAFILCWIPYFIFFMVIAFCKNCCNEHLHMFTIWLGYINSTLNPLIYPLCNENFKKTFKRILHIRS
UniProt P25021, whole entry: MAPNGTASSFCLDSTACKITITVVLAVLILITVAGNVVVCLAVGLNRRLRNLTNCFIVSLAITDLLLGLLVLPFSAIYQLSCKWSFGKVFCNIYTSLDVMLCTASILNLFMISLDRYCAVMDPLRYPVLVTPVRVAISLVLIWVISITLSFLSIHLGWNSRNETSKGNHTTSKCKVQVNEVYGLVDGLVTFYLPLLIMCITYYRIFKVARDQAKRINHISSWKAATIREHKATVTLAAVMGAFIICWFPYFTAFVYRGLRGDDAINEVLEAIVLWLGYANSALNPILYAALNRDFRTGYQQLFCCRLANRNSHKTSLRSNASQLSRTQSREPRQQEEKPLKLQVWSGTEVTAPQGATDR

Columns and labels:
human D2 receptor = human D2 receptor (Homo sapiens, UniProt P14416); experiment: [3H]spiperone binding, dopamine D2 receptor
human 5HT2 receptor = human 5HT2 receptor (Homo sapiens, UniProt P28223); experiment: [3H]ketanserin competition binding, 5HT2 receptor
calcium channels = molecular target: T1, calcium channels (Rattus norvegicus, UniProt P22002); experiment: [3H]nitrendipine competition binding, calcium channels, rat cardiac muscle membranes
T1 construct: from tissue; host or cells: rat cardiac muscle membranes

[1] = molecular target: human histamine H1 receptor (Homo sapiens, UniProt P35367); experiment: [3H]mepyramine binding, histamine H1 receptor
[2] = molecular target: human histamine H2 receptor (Homo sapiens, UniProt P25021); experiment: [3H]tiotidine binding, histamine H2 receptor

Dopamine D2 (pK1) (human D2 receptor): <7.0
Serotonin 5HT2 (pK1) (human 5HT2 receptor): <7.0
Calcium Channel (pK1) (calcium channels): 8.04
Histamine H1 (pK1) [1]: 6.78
Histamine H2 (pK1) [2]: 6.24
Substance: S-niguldipine
